This is a selection; strong and weak results do not stand in their true shares. Active and inactive are the calls of the source. Calls come from the whole dose curve; as a rule, active = well fitted inhibition curve with a large enough effect; inconclusive = small, poorly fitted or top-dose-only effect; inactive = flat fitted curve, though single readings scatter.
% is set by controls: 0 for no effect and ±100 for the full control effect.

The chains behind the UniProt entries cited, without tags or fusion partners.
UniProt P08659, whole entry: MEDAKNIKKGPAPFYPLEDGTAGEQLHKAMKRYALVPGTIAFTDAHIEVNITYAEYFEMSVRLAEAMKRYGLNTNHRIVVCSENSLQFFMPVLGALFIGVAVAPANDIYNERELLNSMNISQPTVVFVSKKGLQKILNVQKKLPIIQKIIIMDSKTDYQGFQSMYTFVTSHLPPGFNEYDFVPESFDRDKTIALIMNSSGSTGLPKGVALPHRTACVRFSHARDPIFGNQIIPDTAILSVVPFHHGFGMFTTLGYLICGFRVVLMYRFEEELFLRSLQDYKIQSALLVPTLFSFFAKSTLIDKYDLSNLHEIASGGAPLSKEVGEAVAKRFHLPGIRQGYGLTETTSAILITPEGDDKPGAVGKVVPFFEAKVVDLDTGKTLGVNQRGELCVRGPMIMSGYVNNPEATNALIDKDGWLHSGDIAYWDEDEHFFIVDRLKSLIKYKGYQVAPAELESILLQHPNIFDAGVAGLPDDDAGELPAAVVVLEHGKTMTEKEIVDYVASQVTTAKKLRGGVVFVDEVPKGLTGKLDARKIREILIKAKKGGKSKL

The target in the experiment is Luciferin 4-monooxygenase (Photinus pyralis) (UniProt P08659). The experiment in a line: qHTS Assay for Inhibitors of Firefly Luciferase. Note: nearly all actives have a fitted effect of over 40% in size. As to conditions: purified firefly luciferase, luminescence, 8 min; at 57.1 µM (top of the series) unless noted. Here is the method:
To aid in the interpretation of high-throughput screening (HTS) results derived from luciferase-based assays, we used quantitative HTS, an approach that defines the concentration-response behavior of each library sample, to profile the ATP-dependent luciferase from Photinus pyralis against more than 72 000 samples. Luciferase (PKLight, Cambrex Corporation) was assayed for its ability to generate light using ATP and luciferin as substrates. The ATP concentration in the assay (10 uM) was within the linear range of enzyme activity for the assay conditions used. See following reference for further details: [1] Auld DS, Southall NT, Jadhav A, Johnson RL, Diller DJ, Simeonov A, Austin CP, Inglese J. Characterization of chemical libraries for luciferase inhibitory activity. J Med Chem. 2008 Apr 24;51(8):2372-86. Auld DS, Zhang YQ, Southall NT, Rai G, Landsman M, Maclure J, Langevin D, Thomas CJ, Austin CP, Inglese J. A Basis for Reduced Chemical Library Inhibition of Firefly Luciferase Obtained from Directed Evolution. J. Med. Chem., 2009, 52 (5), pp 1450#1458 [3] Auld DS, Thorne N, Nguyen DT, Inglese J. A specific mechanism for nonspecific activation in reporter-gene assays. ACS Chem Biol. 2008 Aug 15;3(8):463-70. Auld DS, Thorne N, Maguire WF, Inglese J. Mechanism of PTC124 activity in cell-based luciferase assays of nonsense codon suppression. Proc Natl Acad Sci U S A. 2009 Mar 3;106(9):3585-90. Inglese J, Auld DS, Jadhav A, Johnson RL, Simeonov A, Yasgar A, Zheng W, Austin CP. Quantitative high-throughput screening: a titration-based approach that efficiently identifies biological activities in large chemical libraries. Proc Natl Acad Sci U S A. 2006 Aug 1;103(31):11473-8.
Four uL of substrate mix (final concentration, 50 mM imidazole pH 7.2, 50 mM KCl, 7 mM MgCl2, 10 uM ATP, 0.01% Tween 20, 0.05% BSA) was dispensed into white 1536 well plates. Twenty-three nL of compound was delivered by a pin tool and 2 uL of luciferase detector mix (PKLight, Cambrex) was added. Following 8-minute incubation at ambient temperature, luminescence was measured by a ViewLux (Perkin Elmer) at 5 seconds exposure/plate.
Regarding `COc1ccccc1OP(C)(=O)Nc1ccc(C)cc1` (configuration not stated), the activity change, negative = inhibition is inactive: -1.05%.

Regarding `Cc1ccc(NP(C)(=O)Oc2ccccc2)c(C)c1` (configuration not stated), the activity change, negative = inhibition is inactive: -1.57%.

For the compound `CP(=S)(Nn1cnnc1)Oc1ccccc1` (configuration not stated), the activity change, negative = inhibition was inactive: 1.68%.

Regarding `N1=C(c2nnc(-c3nn[nH]n3)nn2)NNN1`, the activity change, negative = inhibition was inactive: -1.67% [at 11.4 µM].

Turning to `CCOP(C)(=S)SCC(=O)NC(C)C(=O)O` (configuration not stated), the activity change, negative = inhibition is inactive: -0.61%.

For the compound `CP(=O)(NC(=O)Nc1ccccc1)Oc1ccccc1` (configuration not stated), the activity change, negative = inhibition is inactive: -0.0318%.

Consider `Cc1nc2ccc3ccccc3c2s1.O=[N+]([O-])c1cc([N+](=O)[O-])c(O)c([N+](=O)[O-])c1`, for which the activity change, negative = inhibition was inactive: -4.72%.

`Cc1ccc(C)c(NP(C)(=O)Oc2ccccc2)c1` (configuration not stated): the activity change, negative = inhibition is inactive: 1.09%.

For the compound `CP(=O)(Nc1ccccc1F)Oc1ccccc1` (configuration not stated), the activity change, negative = inhibition is inactive: 0.049%.

For `CN(C)CCOC(=O)C(O)(c1ccccc1)C1CCCCC1` (configuration not stated), the activity change, negative = inhibition is inactive: 1.8%.

Turning to `Cc1ccccc1NP(C)(=O)Nc1ccccc1C`, the activity change, negative = inhibition is inactive: -0.539%.

Take `NNC(NN)NN.n1nc(-c2nn[nH]n2)n[nH]1`: the activity change, negative = inhibition is inactive: -0.149% [at 11.4 µM].

Regarding `CP(=O)(Nc1ccc2c(c1)OCCO2)Oc1ccccc1` (configuration not stated), the activity change, negative = inhibition is inactive: 1.61%.

On to `CCOP(C)(=S)SCC(=O)NC(C)(CC)C(=O)O` (configuration not stated), for which the activity change, negative = inhibition was inactive: -0.642%.

`COc1ccccc1OP(C)(=O)Nc1c(C)n(C)n(-c2ccccc2)c1=O` (configuration not stated): the activity change, negative = inhibition is inactive: 3.28%.

In the case of `CP(=O)(Oc1ccccc1)N1CCOC1=O` (configuration not stated), the activity change, negative = inhibition was inactive: -0.921%.

Take `CCN(CC)CC(O)COC(=O)C(O)(c1ccccc1)C1CCCCC1` (configuration not stated): the activity change, negative = inhibition was inactive: -0.988% [at 25.5 µM].

For `N#[O+].[C-]#N.[C-]#N.[C-]#N.[C-]#N.[C-]#N.[Fe+2].[Na+].[Na+]`, the activity change, negative = inhibition was inactive: -1.87%.

In the case of `C/C1=C2N=C(/C=C3N=C(/C(C)=C4\[N-][C@@](C)([C@H]5N=C1[C@@](C)(CCC(=O)NC[C@H](C)OP(=O)([O-])O[C@@H]1[C@H](O)[C@H](n6cnc7cc(C)c(C)cc76)O[C@@H]1CO)[C@@H]5CC(N)=O)[C@](C)(CC(N)=O)[C@H]4CCC(N)=O)[C@@](C)(CC(N)=O)[C@@H]\3CCC(N)=O)C(C)(C)[C@@H]/2CCC(N)=O.[C-]#N.[Co+3]`, the activity change, negative = inhibition is inactive: -0.85% [at 25.5 µM].

As to `Cc1nc2ccc3ccccc3c2o1.O=[N+]([O-])c1cc([N+](=O)[O-])c(O)c([N+](=O)[O-])c1`, the activity change, negative = inhibition is inactive: -10.9%.

With `COc1ccccc1OP(C)(=O)Nc1ccc(C)c(C)c1` (configuration not stated), the activity change, negative = inhibition was inactive: -0.824%.

For the compound `CP(=O)(Nc1ccccn1)Oc1ccccc1` (configuration not stated), the activity change, negative = inhibition was inactive: 1.51%.

The values are drawn from PubChem BioAssay AID411 (National Center for Advancing Translational Sciences (NCATS), 2006).
